In this assay the test system is BCR-ABL ALL cells. Put plainly: survival of mice transplanted with BCR-ABL ALL cells. Type of assay: in vivo. The protocol:
Experimental procedures were approved by the Animal Care and Use Committee of Shanghai Institute of Biochemistry and Cell Biology, Chinese Academy of Sciences. In all, 200 wild-type C57BL/6 mice (6 weeks old, female) were used for determining maximally tolerated dose of CY, and testing CY and other drugs' efficacy in the BCR-ABL ALL model. […] At 7 days postinjection, mice were treated with indicated drugs at their MTDs. Mice were monitored daily for survival after drug treatment. Survival curve and statistical analysis were done using the Prism software. For xenograft H460 model, in all, nude mice (8 weeks old, female) were used to test CY and bendamustine's in vivo efficacy. The numbers of mice used in each experimental group are labeled on Fig4.

Consider `Cc1nc(Nc2ncc(C(=O)Nc3c(C)cccc3Cl)s2)cc(N2CCN(CCO)CC2)n1` [dasatinib], for which the “survival extension, daily doses” value is recorded as “up to 2 months”.

The values above are taken from publication PMC4403045 (EMBO Molecular Medicine, 2015).
